Literature values in publication PMC9790683 (Birth Defects Research, 2022).
Like-named read-outs stand apart in the source and are kept apart here.

Details: ref OECD 2020, cited from earlier work

CCCCC(CC)C(=O)O (centres unmarked) [EHA, 2‐Ethylhexanoic acid]
Human OED_max fu model (from CALUX Min EC10 cell-total): 2.6 mg/kg | Human OED_max fu model (from mEST HDAC inhibition, day 10 EC10): 10 mg/kg
